Biological target: MK2 (Homo sapiens, UniProt P49137)
Conditions: healthy volunteers, oral QD 14 days, 10-150 mg cohorts; FIG. 7

Protein sequences, listed by entry. Tags and fused reporters are not part of them.
UniProt P49137, whole entry: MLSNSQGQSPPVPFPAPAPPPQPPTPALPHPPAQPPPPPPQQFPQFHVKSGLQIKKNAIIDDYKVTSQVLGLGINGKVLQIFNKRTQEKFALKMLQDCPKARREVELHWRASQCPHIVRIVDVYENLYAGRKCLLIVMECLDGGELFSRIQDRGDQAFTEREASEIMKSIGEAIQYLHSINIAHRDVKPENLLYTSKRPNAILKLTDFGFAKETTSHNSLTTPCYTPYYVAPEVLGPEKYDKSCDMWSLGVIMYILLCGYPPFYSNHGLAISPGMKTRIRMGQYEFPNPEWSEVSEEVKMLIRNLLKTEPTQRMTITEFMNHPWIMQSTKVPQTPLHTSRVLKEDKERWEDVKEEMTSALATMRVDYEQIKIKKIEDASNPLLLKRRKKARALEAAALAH

CCOCc1cnc(Cl)nc1Oc1ccc2c(ccc3sc4c(c32)NC[C@@H](C)NC4=O)n1 [Compound I-82]
target engagement (change in percent bound MK2 from baseline): dose-dependent target engagement

— US20230255979A1, “METHODS OF TREATING ACUTE RESPIRATORY DISORDERS” (Bristol-Myers Squibb Company, priority 2020, published 2023)
